Source: PMC12142581

The chains behind the UniProt entries cited, without tags or fusion partners. Where a name states a change or a piece, a line headed by the entry shows the natural chain unless it says otherwise.
UniProt P49146, whole entry, looked up: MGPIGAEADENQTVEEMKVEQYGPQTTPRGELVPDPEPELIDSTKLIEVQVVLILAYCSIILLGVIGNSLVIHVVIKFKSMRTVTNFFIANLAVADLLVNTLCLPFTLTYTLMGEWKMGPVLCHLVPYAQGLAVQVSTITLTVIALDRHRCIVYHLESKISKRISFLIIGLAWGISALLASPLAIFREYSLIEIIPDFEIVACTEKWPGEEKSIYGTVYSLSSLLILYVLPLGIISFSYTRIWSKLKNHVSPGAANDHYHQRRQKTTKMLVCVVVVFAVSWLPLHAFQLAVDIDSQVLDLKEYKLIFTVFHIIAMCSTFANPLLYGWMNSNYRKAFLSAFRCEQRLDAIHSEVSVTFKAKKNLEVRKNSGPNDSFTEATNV
UniProt P35408: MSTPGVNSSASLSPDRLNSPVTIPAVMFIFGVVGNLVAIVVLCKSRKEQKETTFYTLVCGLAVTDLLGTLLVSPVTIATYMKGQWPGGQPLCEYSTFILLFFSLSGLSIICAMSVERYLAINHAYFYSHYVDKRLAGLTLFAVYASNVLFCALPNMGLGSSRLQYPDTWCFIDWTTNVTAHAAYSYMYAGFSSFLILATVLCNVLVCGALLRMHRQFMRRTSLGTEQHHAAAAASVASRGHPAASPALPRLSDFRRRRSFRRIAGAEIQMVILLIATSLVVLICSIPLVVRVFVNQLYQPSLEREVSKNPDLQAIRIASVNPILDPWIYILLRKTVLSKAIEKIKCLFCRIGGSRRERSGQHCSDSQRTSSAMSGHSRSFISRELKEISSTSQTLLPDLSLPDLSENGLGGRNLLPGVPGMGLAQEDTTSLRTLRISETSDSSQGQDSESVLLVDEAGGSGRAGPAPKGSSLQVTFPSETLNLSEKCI
UniProt P41595, whole entry, looked up: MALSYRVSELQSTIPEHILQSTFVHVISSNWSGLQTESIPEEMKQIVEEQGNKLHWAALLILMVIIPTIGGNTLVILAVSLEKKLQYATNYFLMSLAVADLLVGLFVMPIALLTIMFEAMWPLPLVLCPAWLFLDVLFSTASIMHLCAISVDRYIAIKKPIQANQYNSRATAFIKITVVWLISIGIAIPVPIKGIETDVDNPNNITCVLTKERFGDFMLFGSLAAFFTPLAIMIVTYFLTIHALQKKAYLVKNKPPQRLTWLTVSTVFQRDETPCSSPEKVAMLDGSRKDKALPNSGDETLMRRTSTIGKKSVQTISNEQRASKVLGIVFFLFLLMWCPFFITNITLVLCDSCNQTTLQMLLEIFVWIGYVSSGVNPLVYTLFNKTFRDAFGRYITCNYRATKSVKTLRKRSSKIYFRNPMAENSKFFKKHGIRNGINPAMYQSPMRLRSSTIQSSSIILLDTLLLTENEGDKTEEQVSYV
UniProt P05177, whole entry, looked up: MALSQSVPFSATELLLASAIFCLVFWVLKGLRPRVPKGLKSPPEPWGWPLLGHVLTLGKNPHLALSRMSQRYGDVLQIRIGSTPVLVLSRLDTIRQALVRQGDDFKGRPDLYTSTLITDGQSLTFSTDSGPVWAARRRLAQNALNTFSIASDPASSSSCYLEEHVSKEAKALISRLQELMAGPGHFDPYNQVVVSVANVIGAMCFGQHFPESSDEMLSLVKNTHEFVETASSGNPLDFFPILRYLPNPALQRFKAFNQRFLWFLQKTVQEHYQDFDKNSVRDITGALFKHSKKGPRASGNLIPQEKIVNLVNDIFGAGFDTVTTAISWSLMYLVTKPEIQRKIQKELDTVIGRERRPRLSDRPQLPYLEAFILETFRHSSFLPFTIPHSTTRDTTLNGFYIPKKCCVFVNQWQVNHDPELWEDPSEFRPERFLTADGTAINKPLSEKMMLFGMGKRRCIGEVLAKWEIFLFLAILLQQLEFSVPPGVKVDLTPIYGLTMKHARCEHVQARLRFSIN
UniProt P20813: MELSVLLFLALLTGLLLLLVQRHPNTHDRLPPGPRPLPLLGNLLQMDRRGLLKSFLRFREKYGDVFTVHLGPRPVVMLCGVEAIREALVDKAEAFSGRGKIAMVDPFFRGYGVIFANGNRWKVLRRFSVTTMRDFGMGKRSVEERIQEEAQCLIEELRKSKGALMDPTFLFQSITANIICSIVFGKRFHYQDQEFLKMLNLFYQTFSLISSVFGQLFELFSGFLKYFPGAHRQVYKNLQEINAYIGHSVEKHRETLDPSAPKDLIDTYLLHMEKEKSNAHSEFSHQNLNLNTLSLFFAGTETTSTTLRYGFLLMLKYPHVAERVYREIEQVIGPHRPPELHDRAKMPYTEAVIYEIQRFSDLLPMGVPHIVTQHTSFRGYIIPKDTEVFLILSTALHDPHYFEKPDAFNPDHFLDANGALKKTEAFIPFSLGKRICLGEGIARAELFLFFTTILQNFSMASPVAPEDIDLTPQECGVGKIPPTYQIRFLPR
UniProt P33261, whole entry, looked up: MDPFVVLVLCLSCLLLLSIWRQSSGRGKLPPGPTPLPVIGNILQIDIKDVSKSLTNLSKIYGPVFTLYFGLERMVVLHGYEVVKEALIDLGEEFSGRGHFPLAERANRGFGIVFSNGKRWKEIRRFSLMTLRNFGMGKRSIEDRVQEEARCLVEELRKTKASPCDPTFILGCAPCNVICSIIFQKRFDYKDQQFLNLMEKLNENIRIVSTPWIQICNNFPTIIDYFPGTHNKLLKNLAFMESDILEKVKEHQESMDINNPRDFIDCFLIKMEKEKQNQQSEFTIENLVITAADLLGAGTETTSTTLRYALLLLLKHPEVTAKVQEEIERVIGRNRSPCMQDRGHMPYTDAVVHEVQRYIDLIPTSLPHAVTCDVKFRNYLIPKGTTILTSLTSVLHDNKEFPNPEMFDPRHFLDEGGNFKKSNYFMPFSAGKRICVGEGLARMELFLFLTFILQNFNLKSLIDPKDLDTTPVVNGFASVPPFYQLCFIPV
UniProt P10632, whole entry, looked up: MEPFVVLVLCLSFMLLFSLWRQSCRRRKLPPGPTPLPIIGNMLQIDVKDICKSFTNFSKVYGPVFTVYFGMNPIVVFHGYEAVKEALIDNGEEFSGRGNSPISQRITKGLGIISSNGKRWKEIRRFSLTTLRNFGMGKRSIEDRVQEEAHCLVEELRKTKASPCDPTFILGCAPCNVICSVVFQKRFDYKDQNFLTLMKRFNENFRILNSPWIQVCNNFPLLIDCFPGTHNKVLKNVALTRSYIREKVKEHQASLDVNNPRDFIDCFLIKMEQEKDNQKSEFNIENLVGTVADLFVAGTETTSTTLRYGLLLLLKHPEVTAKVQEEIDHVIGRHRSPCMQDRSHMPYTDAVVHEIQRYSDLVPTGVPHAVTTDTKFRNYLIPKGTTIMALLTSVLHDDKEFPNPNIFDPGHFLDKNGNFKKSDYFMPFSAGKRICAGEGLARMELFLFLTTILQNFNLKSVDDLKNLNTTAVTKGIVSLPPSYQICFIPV
UniProt P11712, whole entry, looked up: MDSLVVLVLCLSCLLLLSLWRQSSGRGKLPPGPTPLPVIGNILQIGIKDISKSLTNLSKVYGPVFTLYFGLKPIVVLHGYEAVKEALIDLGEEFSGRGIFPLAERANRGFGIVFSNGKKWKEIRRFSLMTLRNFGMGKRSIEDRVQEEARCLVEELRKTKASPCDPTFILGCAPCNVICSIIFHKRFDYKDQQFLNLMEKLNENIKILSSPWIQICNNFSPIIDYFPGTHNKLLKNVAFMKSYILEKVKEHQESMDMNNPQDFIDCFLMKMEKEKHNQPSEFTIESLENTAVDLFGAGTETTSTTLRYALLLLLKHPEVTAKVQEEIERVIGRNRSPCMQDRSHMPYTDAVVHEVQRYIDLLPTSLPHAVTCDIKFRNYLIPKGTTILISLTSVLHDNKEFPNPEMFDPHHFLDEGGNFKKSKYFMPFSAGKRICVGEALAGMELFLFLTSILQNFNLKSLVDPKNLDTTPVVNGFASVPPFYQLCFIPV
UniProt P10635, whole entry, looked up: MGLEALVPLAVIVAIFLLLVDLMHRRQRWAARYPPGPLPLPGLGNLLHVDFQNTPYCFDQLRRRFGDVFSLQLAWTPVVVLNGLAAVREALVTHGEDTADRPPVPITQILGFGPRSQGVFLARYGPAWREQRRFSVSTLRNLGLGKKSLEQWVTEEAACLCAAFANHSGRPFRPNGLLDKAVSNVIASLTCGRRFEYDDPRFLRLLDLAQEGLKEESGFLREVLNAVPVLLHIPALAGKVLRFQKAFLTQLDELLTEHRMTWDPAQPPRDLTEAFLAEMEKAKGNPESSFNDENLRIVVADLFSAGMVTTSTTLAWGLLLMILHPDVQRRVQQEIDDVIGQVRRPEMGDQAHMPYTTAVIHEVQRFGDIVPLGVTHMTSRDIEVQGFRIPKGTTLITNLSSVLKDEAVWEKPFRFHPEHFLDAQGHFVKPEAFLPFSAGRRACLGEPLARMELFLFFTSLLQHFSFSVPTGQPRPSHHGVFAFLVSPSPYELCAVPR
UniProt P08684, whole entry, looked up: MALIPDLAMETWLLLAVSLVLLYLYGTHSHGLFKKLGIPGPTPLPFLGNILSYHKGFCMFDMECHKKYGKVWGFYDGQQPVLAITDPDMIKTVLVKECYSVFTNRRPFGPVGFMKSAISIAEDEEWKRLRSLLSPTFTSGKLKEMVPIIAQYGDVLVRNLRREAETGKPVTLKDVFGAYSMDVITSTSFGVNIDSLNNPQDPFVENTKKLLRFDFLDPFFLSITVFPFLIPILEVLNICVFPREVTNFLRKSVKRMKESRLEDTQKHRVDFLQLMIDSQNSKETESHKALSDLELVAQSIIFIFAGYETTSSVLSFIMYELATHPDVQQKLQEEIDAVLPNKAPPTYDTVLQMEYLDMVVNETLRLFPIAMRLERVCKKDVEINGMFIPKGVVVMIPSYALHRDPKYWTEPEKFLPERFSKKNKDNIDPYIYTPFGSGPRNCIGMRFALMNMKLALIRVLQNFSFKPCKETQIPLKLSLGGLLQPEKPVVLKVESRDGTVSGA
UniProt Q9UNQ0: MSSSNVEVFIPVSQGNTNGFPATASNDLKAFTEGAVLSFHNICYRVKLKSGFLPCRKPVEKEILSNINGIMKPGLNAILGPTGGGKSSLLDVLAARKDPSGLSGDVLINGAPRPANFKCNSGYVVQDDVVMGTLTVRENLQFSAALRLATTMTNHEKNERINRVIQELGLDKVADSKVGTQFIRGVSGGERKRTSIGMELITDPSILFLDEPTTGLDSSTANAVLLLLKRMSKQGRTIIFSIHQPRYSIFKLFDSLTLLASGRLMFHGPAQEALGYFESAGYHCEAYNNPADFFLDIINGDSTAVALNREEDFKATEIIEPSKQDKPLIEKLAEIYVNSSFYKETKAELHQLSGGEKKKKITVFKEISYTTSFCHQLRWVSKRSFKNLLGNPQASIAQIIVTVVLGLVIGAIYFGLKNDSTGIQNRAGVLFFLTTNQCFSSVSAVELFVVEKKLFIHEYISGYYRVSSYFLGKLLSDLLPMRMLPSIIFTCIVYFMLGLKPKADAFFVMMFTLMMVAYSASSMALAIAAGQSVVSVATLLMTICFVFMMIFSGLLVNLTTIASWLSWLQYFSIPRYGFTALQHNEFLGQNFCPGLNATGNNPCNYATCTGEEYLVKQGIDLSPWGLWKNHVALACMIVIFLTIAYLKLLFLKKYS

Experiments:
In vivo IV/PO PK = conditions: for In vivo plasma CLtotal: Table S16
Glutamate, Kainate = test: Lead Profiling Screen
Glutamate, NMDA, Agonism = test: Lead Profiling Screen
Neuropeptide Y Y2 = Neuropeptide Y Y2 (Homo sapiens, UniProt P49146); test: Lead Profiling Screen
Prostanoid EP4 = Prostanoid EP4 (Homo sapiens, UniProt P35408); test: Lead Profiling Screen
[1] = target: Serotonin (5-Hydroxytryptamine) 5-HT2B (Homo sapiens, UniProt P41595); test: Lead Profiling Screen
[2] = test system: MK-801-induced hyperlocomotion; test: MK-801-induced hyperlocomotion; conditions: PO, 60 min pretreatment, rat
[3] = Metabolic stability in cryopreserved hepatocytes; conditions: for clearance / intrinsic clearance: up to 1 μM; for CLhep: hepatocytes
CYP1A2 = CYP1A2 (Homo sapiens, UniProt P05177); test: Cytochrome P450 inhibition, pooled human liver microsomes; conditions: read-out: CYP1A2 IC50; direct inhibition
CYP2B6 = CYP2B6 (Homo sapiens, UniProt P20813); test: as above; conditions: read-out: CYP2B6 IC50; direct inhibition
CYP2C19 = CYP2C19 (Homo sapiens, UniProt P33261); test: as above
CYP2C8 = CYP2C8 (Homo sapiens, UniProt P10632); test: as above
CYP2C9 = CYP2C9 (Homo sapiens, UniProt P11712); test: as above
CYP2D6 = CYP2D6 (Homo sapiens, UniProt P10635); test: as above; conditions: read-out: CYP2D6 IC50; direct inhibition
CYP3A4 = CYP3A4 (Homo sapiens, UniProt P08684); test: as above
[4] = Intrinsic clearance in liver microsomes (substrate depletion)
BCRP = BCRP (Homo sapiens, UniProt Q9UNQ0); test: Permeability and active transport in BCRP-transfected MDCKII cells
[5] = test system: 68 off-target GPCRs, ion channels and transporters; test: Lead Profiling Screen (Eurofins Panlabs), radioligand displacement, whole panel; conditions: 10 μM
[6] = predicted from microsomal CLint

Cc1nnc2sc3c(NCc4ccc(C(C)(C)O)cc4)ncnc3c2c1C
CLp (In vivo IV/PO PK; dog IV 1 mg/kg): 5.0 mL/min/kg | MRT (In vivo IV/PO PK; dog IV 1 mg/kg): 5.05 h | Vss (In vivo IV/PO PK; dog IV 1 mg/kg): 1.4 L/kg | t1/2 (In vivo IV/PO PK; dog IV 1 mg/kg): 4.17 h | % F (In vivo IV/PO PK; dog PO 3 mg/kg): 54% | AUC0–∞ (In vivo IV/PO PK; dog PO 3 mg/kg): 5920 ng·h/mL | Cmax (In vivo IV/PO PK; dog PO 3 mg/kg): 766 ng/mL | Tmax (In vivo IV/PO PK; dog PO 3 mg/kg): 2.0 h | CLp (In vivo IV/PO PK; minipig IV 2 mg/kg): 7.7 mL/min/kg | MRT (In vivo IV/PO PK; minipig IV 2 mg/kg): 4.9 h | Vss (In vivo IV/PO PK; minipig IV 2 mg/kg): 2.2 L/kg | t1/2 (In vivo IV/PO PK; minipig IV 2 mg/kg): 5.50 h | % F (In vivo IV/PO PK; minipig PO 5 mg/kg): 50% | AUC0–∞ (In vivo IV/PO PK; minipig PO 5 mg/kg): 8000 ng·h/mL | Cmax (In vivo IV/PO PK; minipig PO 5 mg/kg): 600 ng/mL | Tmax (In vivo IV/PO PK; minipig PO 5 mg/kg): 1.2 h | In vivo plasma CLtotal (In vivo IV/PO PK; minipig): 7.67 mL/min/kg | CLp (In vivo IV/PO PK; monkey IV 1 mg/kg): 5.0 mL/min/kg | MRT (In vivo IV/PO PK; monkey IV 1 mg/kg): 3.16 h | Vss (In vivo IV/PO PK; monkey IV 1 mg/kg): 0.9 L/kg | t1/2 (In vivo IV/PO PK; monkey IV 1 mg/kg): 4.54 h | AUC0–∞ (In vivo IV/PO PK; monkey PO 3 mg/kg): 4696 ng·h/mL | Cmax (In vivo IV/PO PK; monkey PO 3 mg/kg): 960 ng/mL | Tmax (In vivo IV/PO PK; monkey PO 3 mg/kg): 2.0 h | In vivo plasma CLtotal (In vivo IV/PO PK; monkey): 5.33 mL/min/kg | CLp (In vivo IV/PO PK; rat IV 1 mg/kg): 4.7 mL/min/kg | MRT (In vivo IV/PO PK; rat IV 1 mg/kg): 2.65 h | Vss (In vivo IV/PO PK; rat IV 1 mg/kg): 0.7 L/kg | t1/2 (In vivo IV/PO PK; rat IV 1 mg/kg): 2.63 h | AUC0–∞ (In vivo IV/PO PK; rat PO 3 mg/kg): 14,801 h·ng/mL | Cmax (In vivo IV/PO PK; rat PO 3 mg/kg): 1695 ng/mL | Tmax (In vivo IV/PO PK; rat PO 3 mg/kg): 1.5 h | % F (In vivo IV/PO PK; rat PO 30 mg/kg): 89% | AUC0–∞ (In vivo IV/PO PK; rat PO 30 mg/kg): 101,444 h·ng/mL | Cmax (In vivo IV/PO PK; rat PO 30 mg/kg): 8985 ng/mL | Tmax (In vivo IV/PO PK; rat PO 30 mg/kg): 3.0 h | % F (In vivo IV/PO PK; rat PO, dose not named (conclusion)): ≥ 89% | In vivo plasma CLtotal (In vivo IV/PO PK; rat): 4.33 mL/min/kg | % inh at 10 μM (Glutamate, Kainate): 26% | % inh at 10 μM (Glutamate, NMDA, Agonism): 6% | % inh at 10 μM (Neuropeptide Y Y2): 5% | % inh at 10 μM (Prostanoid EP4): 22% | % inh at 10 μM [1]: -6% | MED, MK-801-induced hyperlocomotion [2]: 3 mg/kg | clearance ([3]; NHP hepatocytes): 23.5 mL/min/kg | clearance ([3]; dog hepatocytes): 38.3 mL/min/kg | CLhep ([3]; dog, 0.1 µM): 38.2 ± 1.5 mL/min/kg | CLhep ([3]; dog, 0.3 µM): 38.8 ± 2.1 mL/min/kg | CLhep ([3]; dog, 1 µM): 38.3 ± 2.0 mL/min/kg | CLhep ([3]; human, 0.1 µM): < 5.17 mL/min/kg | CLhep ([3]; human, 0.3 µM): < 5.17 mL/min/kg | CLhep ([3]; human, 1 µM): < 5.17 mL/min/kg | CLhep ([3]; minipig, 0.1 µM): 14.8 ± 0.02 mL/min/kg | CLhep ([3]; minipig, 0.3 µM): 13.7 ± 0.2 mL/min/kg | CLhep ([3]; minipig, 1 µM): 14.3 ± 0.5 mL/min/kg | CLhep ([3]; monkey, 0.1 µM): 23.5 ± 0.6 mL/min/kg | CLhep ([3]; monkey, 0.3 µM): 22.0 ± 0.3 mL/min/kg | CLhep ([3]; monkey, 1 µM): 23.5 ± 0.6 mL/min/kg | CLhep ([3]; rat, 0.1 µM): 25.2 ± 0.6 mL/min/kg | CLhep ([3]; rat, 0.3 µM): 21.8 ± 0.5 mL/min/kg | CLhep ([3]; rat, 1 µM): 25.2 ± 0.4 mL/min/kg | intrinsic clearance ([3]; human hepatocytes): < 5.17 mL/min/kg | intrinsic clearance ([3]; minipig hepatocytes): 14.8 mL/min/kg | intrinsic clearance ([3]; rat hepatocytes): 25.2 mL/min/kg | IC50 (CYP1A2): > 15 µM | IC50 (CYP2B6): > 15 µM | decrease in formation of metabolite, CYP2C19 (CYP2C19; highest concentration): 35% | IC50 (CYP2C19; read-out: CYP2C19 IC50, direct inhibition): > 15 µM | decrease in formation of metabolite, CYP2C8 (CYP2C8; highest concentration): 39% | IC50 (CYP2C8; read-out: CYP2C8 IC50, direct inhibition): > 15 µM | decrease in formation of metabolite, CYP2C9 (CYP2C9; highest concentration): 49% | IC50 (CYP2C9; read-out: CYP2C9 IC50, direct inhibition): > 15 µM | IC50 (CYP2D6): > 15 µM | IC50 (CYP3A4; read-out: CYP3A4-M IC50, direct inhibition): > 15 µM | IC50 (CYP3A4; read-out: CYP3A4-T IC50, direct inhibition): > 15 µM | IC50 (CYP3A4; read-out: CYP3A4 IC50, substrate not named): > 15 µM | CLint, human ([4]; microsomes): 17 mL/min/kg | CLint, rat ([4]; microsomes): 89 mL/min/kg | CLhep, human [4, 6]: 9 mL/min/kg | CLhep, rat [4, 6]: 39 mL/min/kg | Papp A-B (BCRP; 1 µM, without BCRP inhibitor): 2.3 [1.7-3.0] cm/s x 10-6 | Papp B-A (BCRP; 1 µM, without BCRP inhibitor): 16 cm/s x 10-6 | permeability classification (BCRP; MDCKII-BCRP): moderate permeability | inhibition across all off-targets screened [5]: ≤ 50%

Read-outs that look alike come from different tables or passages of the source.
